# Test results from US20250032525A1 (priority 2021, published 2025).
# System: Brcal^−/−;p53^−/− tumors
# Type: in vivo, FVB mice
# Conditions: DOX 5 mg/kg
smiles,measurement,value
"COc1cccc2c1C(=O)c1c(O)c3c(c(O)c1C2=O)C[C@@](O)(C(=O)CO)C[C@@H]3O[C@H]1C[C@H](N)[C@H](O)[C@H](C)O1 [DOX, doxorubicin]",Time to relapse and resistance to therapy,≤ 60 days
